# In patent US7132506B2, “Peptide having osteogenetic activity and osteogenetic accelerator containing the same” (Kyocera Corporation, priority 2001, dated 2006):
# Tested on: C3H10T1/2 cell strain
# Assay: Induction of alkali phosphatase activity in C3H10T1/2 cell strain
# Format: cell-based, mouse
# Settings: 50 ng human recombinant BMP-2 added per well; three days of incubation; blank wells 0.24±0.11
# Protocol: Undifferentiated mouse mesenchymal cell strain C3H10T1/2 (purchased from Dai-Nippon Seiyaku KK, Japan) was dispersed in Eagle's MEM medium containing 10% of fetal bovine serum in a cell concentration of 3.75×10^4 cells/mL, and thus a cell culture liquid was prepared. The cell culture liquid was distributed by 100 μL in each well of the 96-hole plates, on which the peptides of Examples 1 to 5, 200 μg each, had been solidified by air drying, and incubated at 37° C. in the presence of 5% CO2.
# As a control, the cells are distributed in the same number into wells without any peptide solidified, and thereafter 50 ng of human recombinant BMP-2 (R&D Systems, Inc.) were added. Also blank wells were prepared to which neither human recombinant BMP-2 nor the solidified peptides were added.
# Three days after the start of incubation, a culture supernatant was removed, and the wells were washed once with phosphate buffer (PBS: 10 mM, containing 0.15 M of common salt, pH 7.4). To each well of the 96-hole plates, 100 μL of Tris buffer (20 mM, pH 8.5) containing 1% Triton X-100 was added and allowed to stand for 30 minutes to dissolve cells. […] Increase in absorbency at 405 nm was measured to determine the alkaline phosphatase activity in the cell solution. The concentration of protein in the cell solution was also determined using a BCA assay kit (produced by Pierce).
substance,measurement,value
"human recombinant BMP-2: human recombinant BMP-2 (R&D Systems, Inc.), used as a control [reference compound]",alkaline phosphatase activity,1.7±0.4 nmol/min·mg-protein
